Results taken from patent US20230391714A1, “INHIBITORS OF THE INTERACTION BETWEEN TRIP8B AND HCN CHANNELS AND USES THEREOF FOR TREATING NEUROLOGICAL DISEASES AND DISORDERS” (Northwestern University, priority 2022, published 2023).

By UniProt entry, the sequences of proteins in these tests, tags left out. Residues count along the entry.
UniProt Q8IYB4, 265-626 limits assumed: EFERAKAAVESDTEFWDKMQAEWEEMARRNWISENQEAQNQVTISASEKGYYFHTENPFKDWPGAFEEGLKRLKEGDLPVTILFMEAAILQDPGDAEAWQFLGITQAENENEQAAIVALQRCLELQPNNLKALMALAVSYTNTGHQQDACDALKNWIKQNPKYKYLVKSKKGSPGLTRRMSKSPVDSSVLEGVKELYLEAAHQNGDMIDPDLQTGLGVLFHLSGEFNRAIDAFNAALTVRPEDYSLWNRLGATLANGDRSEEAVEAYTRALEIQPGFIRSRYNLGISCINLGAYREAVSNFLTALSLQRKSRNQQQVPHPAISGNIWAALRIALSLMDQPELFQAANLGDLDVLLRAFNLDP

These compounds were tested against TRIP8b-HCN1c40 (Homo sapiens (Human), UniProt Q8IYB4) (assay: TRIP8b-HCN1c40 AlphaScreen assay). Details: read-out: TRIP8b-HCN1c40 Alphascreen IC50.
Description: AlphaScreen Assay. 20 nM ofGST-tagged HCNlc40 protein (corresponding to the C terminal 40 amino acids of HCN1) was incubated with 200 nM of His-tagged TRIP8b(241-602) and varying concentrations of the test compound as described in our prior report (Han et al., 2015). After a 3 h incubation, anti-GST AlphaScreen acceptor beads were added for 1.5 h followed by AlphaScreen nickel chelate donor beads for 1.5 h. AlphaScreen signal was quantified using a PerkinElmer (Waltham, MA) EnSpire multimode plate reader.

| Structure (SMILES) | IC50 [µM] |
| --- | --- |
| CN1CCN(Cc2cc(Br)ccc2OCC(=O)NCc2ccc(Cl)cc2)CC1 | 120 |
| Cc1ccc(-c2ccc(OCC(=O)Nc3ccc(-n4cccn4)cc3)c(CN3CCOCC3)c2)cc1 | 11 |
| Cc1ccc(-c2ccc(OCC(=O)NCc3ccc(Cl)cc3)c(CN3CCN(C)CC3)c2)cc1 | 8.7 |
| CN1CCN(Cc2cc(-c3ccc(C(N)=O)cc3)ccc2OCC(=O)NCc2ccc(Cl)cc2)CC1 | 92 |
| CN1CCN(Cc2cc(-c3ccc(C#N)cc3)ccc2OCC(=O)NCc2ccc(Cl)cc2)CC1 | 38 |
| CN1CCN(Cc2cc(-c3ccc(O)cc3)ccc2OCC(=O)NCc2ccc(Cl)cc2)CC1 | 42 |
| CN1CCN(Cc2cc(-c3ccc([N+](=O)[O-])cc3)ccc2OCC(=O)NCc2ccc(Cl)cc2)CC1 | 16 |
| Cc1ccc(-c2ccc(OCC(=O)Nc3ccc(F)cc3)c(CN3CCOCC3)c2)cc1 | 12 |
